Laboratory results reported in PubChem BioAssay AID588473 (Sanford-Burnham Center for Chemical Genomics, 2011).
Only a part is listed here, and it is no random draw. The source made the active and inactive calls.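 The calls were made as follows: active = activation of at least 50%, plus an integration ratio under a set limit after plate pattern correction; inactive = the rest.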

The compounds below were run on CRF-binding protein / CRF receptor 2 complex (human) (assay: agonists of CRF-BP/CRF-R2 complex, primary screen, cell-based, HEK293, calcium dye fluorescence, uHTS (AID 588473;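 also: plate controls were neutral control wells without compound for no effect and CRF at EC100 for full effect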)). Conditions: calcium dye fluorescence (FLIPR), at 13.2 µM, hits give high values, percent of saturating CRF peptide response.

SMILES | activation
O=C(NCC1(N2CCCCC2)CCCCC1)c1ccco1 | inactive: 0.48%
CN(C)c1ccc(C(=O)NCC2(N3CCCCC3)CCCCC2)cc1 | inactive: -2.26%
Cn1c(=O)[nH]cc(N(CCCl)CCCl)c1=O | inactive: 5.91%
Cc1ccccc1NC1(C#N)CCN(Cc2ccccc2)CC1 | inactive: 0.72%
CCN1CCC(Nc2cccc(F)c2)CC1 | inactive: 7.42%
Cc1ccc(NC2(C#N)CCN(Cc3ccccc3)CC2)cc1 | inactive: 0.31%
Cc1ccc(C(=O)NCC2(N3CCCCC3)CCCCC2)o1 | inactive: -1.33%
Fc1ccccc1NC1CCN(Cc2ccccc2)CC1 | inactive: -2.45%
COc1cc(OC)cc(C(=O)NCC2(N3CCCCC3)CCCCC2)c1 | inactive: 0.65%
CC(=O)N(c1ccccc1)C1CCNCC1 | inactive: 2.83%
CN1CCC(Nc2ccc(Cl)cc2)CC1 | inactive: -1.2%
CCC(CO)(C(=O)OC1CN2CCC1CC2)c1ccccc1 (stereo unspecified) | inactive: -2.35%
COc1cccc(C(=O)N(c2cc(C)cc(C)c2)C2CCN(C(=O)OC(C)(C)C)CC2)c1 | inactive: -4.38%
COc1cc(OC)cc(C(=O)NCC2(N3CCOCC3)CCCCC2)c1 | inactive: -0.23%
CCCOc1ccc(C(=O)NCC2(N(C)C)CCCCC2)cc1 | inactive: -1.47%
CC(C)(C)OC(=O)N1CCC(Nc2ccccc2)CC1 | inactive: 0.5%
O=C(O)C1(Nc2ccccc2)CCN(Cc2ccccc2)CC1 | inactive: -0.91%
CCOc1ncccc1C(=O)NCC1(N2CCOCC2)CCCCC1 | inactive: -4.78%
CN1CCC(Nc2ccc(F)c(Cl)c2)CC1 | inactive: 5.44%
CCc1cc(C(=O)NCC2(N3CCCCC3)CCCCC2)sc1C | inactive: 29%
O=C(OC1CN2CCC1CC2)C1c2ccccc2C=Cc2ccccc21 (stereo unspecified) | inactive: 1.24%
N/C(=N\O)c1c(N)no[n+]1[O-] | inactive: 1.29%
CCOC(=O)N1CCC(Nc2ccc(C)cc2)CC1 | inactive: -1.99%
COc1ccc(C(=O)NCC2(N3CCOCC3)CCCCC2)cc1OC | inactive: -1.33%
O=C(NCC1(N2CCOCC2)CCCCC1)c1cc(Br)ccc1Cl | inactive: -2.9%
COc1cc(C(=O)NCC2(N3CCOCC3)CCCCC2)cc(OC)c1C | inactive: -0.2%

SMILES | activation
c1ccc(CN2CCC(Nc3ccccc3)CC2)cc1 | inactive: -0.99%
CCCN1CCC(Nc2cc(OC)cc(OC)c2)CC1 | inactive: -0.3%
Cc1cc(N(CCCl)CCCl)ccc1C=O | inactive: -2.69%
CN(C)C1(CNC(=O)c2cccc(C#N)c2)CCCCC1 | inactive: -0.02%
CC(C)(C)OC(=O)N1CCC(N(C(=O)c2ccccc2)c2ccc(Cl)cc2)CC1 | inactive: -0.56%
N#Cc1ccc(C(=O)NCC2(N3CCCCC3)CCCCC2)cc1 | inactive: 2.45%
COc1ccc(NC2CCN(C(=O)OC(C)(C)C)CC2)cc1 | inactive: -1.53%
CC(C)c1ccc(C(=O)NCC2(N3CCOCC3)CCCCC2)cc1 | inactive: -1.34%
CN1CCN(CCOC(=O)C(O)(c2ccccc2)c2ccccc2)CC1 | inactive: 0.1%
O=C(NCC1(N2CCOCC2)CCCCC1)c1cc(=O)[nH]c2ccccc12 | inactive: -0.71%
COc1cc(C(=O)NCC2(N3CCCCC3)CCCCC2)ccc1OC(F)F | inactive: 0.19%
O=C(NCC1(N2CCCCC2)CCCCC1)c1cccc(C(F)(F)F)c1 | inactive: 3.57%
CSc1ccc(C(=O)NCC2(N3CCOCC3)CCCCC2)cc1 | inactive: -1.76%
O=C(NCC1(N2CCCCC2)CCCCC1)c1cccc([N+](=O)[O-])c1 | inactive: 0.68%
CCN1CCC(Nc2ccc(Cl)cc2)CC1 | inactive: 3.51%
N#CC1(Nc2ccccc2)CCN(CCc2ccccc2)CC1 | inactive: 3.79%
O=C(NCC1(N2CCCCC2)CCCCC1)c1ccc(OC(F)F)cc1 | inactive: 1.69%
Cc1ccc(C(=O)NCC2(N(C)C)CCCCC2)o1 | inactive: -0.55%
CCCOc1ccc(C(=O)NCC2(N(C)C)CCCCC2)cc1OC | inactive: -2.96%
CN1CCC(Nc2cccc(F)c2)CC1 | inactive: -1.19%
O=C(NCC1(N2CCCCC2)CCCCC1)c1cncc(Br)c1 | inactive: 0.14%
COc1cc(OC)c(C(=O)NCC2(N(C)C)CCCCC2)cc1OC | inactive: -1.43%
O=C(NCC1(N2CCOCC2)CCCCC1)c1cc(F)c(F)cc1Cl | inactive: -0.59%
COc1ccc(CN(CCCl)CCCl)cc1Cl | inactive: -1.91%
CN(C)c1cccc(C(=O)NCC2(N3CCCCC3)CCCCC2)c1 | inactive: -2.67%
CC(C)c1ccc(NC2CCN(C(=O)OC(C)(C)C)CC2)cc1 | inactive: 3.95%

SMILES | activation
CCOC(=O)N1CCC(Nc2ccc(OC)cc2)CC1 | inactive: 0.16%
N#CC1(Nc2ccccc2)CCN(Cc2ccccc2)CC1 | inactive: 1.1%
O=C(NCC1(N2CCCCC2)CCCCC1)c1ccc(Cl)s1 | inactive: -1.21%
O=C(OC1CN2CCC1CC2)C1c2ccccc2Oc2ccccc21 (stereo unspecified) | inactive: -0.05%
COc1ccc(Cl)cc1C(=O)NCC1(N2CCOCC2)CCCCC1 | inactive: -1.76%
O=C(NCC1(N2CCOCC2)CCCCC1)c1cc2ccccc2o1 | inactive: 1.13%
O=C(NCC1(N2CCCCC2)CCCCC1)c1ccc(Cl)nc1 | inactive: -1.62%
Cc1cc(C)cc(N(C(=O)c2ccccc2)C2CCN(C(=O)OC(C)(C)C)CC2)c1 | inactive: -0.49%
CSc1ccccc1C(=O)NCC1(N2CCCCC2)CCCCC1 | inactive: 0.06%
Cc1cccc(NC2(C#N)CCN(Cc3ccccc3)CC2)c1 | inactive: -2.59%
O=C(NCC1(N2CCCCC2)CCCCC1)c1ccc(=O)[nH]c1 | inactive: -0.98%
O=C(NCC1(N2CCCCC2)CCCCC1)c1cccs1 | inactive: -0.76%
COc1ccc(C(=O)NCC2(N3CCCCC3)CCCCC2)cc1 | inactive: 0.56%
COc1ccc(C(=O)NCC2(N3CCCCC3)CCCCC2)c(OC)c1OC | inactive: 0.72%
CC(C)(C)OC(=O)N1CCC(N(C(=O)c2ccccc2)c2ccc(F)cc2)CC1 | inactive: 0.13%
CCOC(=O)N1CCC(Nc2cccc(C)c2)CC1 | inactive: -2.28%
COc1cc(C(=O)NCC2(N(C)C)CCCCC2)ccc1OC(F)F | inactive: 0.79%
CCCCOc1ccc(C(=O)NCC2(N3CCOCC3)CCCCC2)cc1 | inactive: -0.99%
O=P1(N(CCCl)CCCl)SCCCS1 | inactive: -0.93%
O=C(NCC1(N2CCCCC2)CCCCC1)c1ccc(F)cc1 | inactive: -0.41%
CCOC(=O)N1CCC(Nc2ccc(F)cc2)CC1 | inactive: -1.65%
COc1ccc(NC2CCN(CCc3ccccc3)CC2)c(OC)c1 | inactive: 0.76%
CCOc1ccc(C)cc1CN(CCCl)CCCl | inactive: -0.48%
O=C1CCN(Cc2ccccc2)CC1 | inactive: 2.88%
